## AlphaSeq binding of Ab-14 light chain variants to a spike HR2 peptide

Source: Li et al. 2023 (doi:10.1038/s41467-023-39022-2), MIT Lincoln Laboratory and A-Alpha Bio; data file from the FLAb repository.

Binding partner: SARS-CoV-2 spike HR2 peptide, sequence PDVDLGDISGINAS.

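The parent was found by panning a naive human phage display library on the peptide. The variants were designed computationally from a first round of random CDR variants and then made and measured. Their group label is 14L_En_HC (En: ensemble of fine-tuned language models; HC: hill climbing; a sequence that several methods proposed may carry one label only). The scFvs were displayed on barcoded MATa yeast, the peptide on MATalpha yeast. Mating (16 h, 30 °C) was followed by selection of diploids and sequencing of their barcodes. Scores were corrected for input abundance and mapped to Kd with protein pairs of known affinity run in the same pool. Each pool was mated in six replicate cultures.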

The variants keep the heavy chain, the linker and the frameworks of Ab-14 (scFv order VH, a 15-residue (Gly4Ser)3 linker, VL).
VH: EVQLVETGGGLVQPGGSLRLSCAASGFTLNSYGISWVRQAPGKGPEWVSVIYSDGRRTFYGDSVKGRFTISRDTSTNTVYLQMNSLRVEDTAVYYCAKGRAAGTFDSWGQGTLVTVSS
VL: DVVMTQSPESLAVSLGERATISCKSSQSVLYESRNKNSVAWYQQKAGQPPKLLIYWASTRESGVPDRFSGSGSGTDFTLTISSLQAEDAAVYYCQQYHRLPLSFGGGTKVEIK

Each variant is given by its three light chain CDRs, as the data file delimits them; those of the parent are KSSQSVLYESRNKNSVA, WASTRES, QQYHRLPLS.
Affinities are written as log10 Kd with Kd in nM; a lower number is a better binder.
An entry "ND" has no value in the source: the pair was not observed among the diploids in that replicate. This suggests poor binding but is not conclusive.

CDR-L1 | CDR-L2 | CDR-L3 | replicates, log10 nM | control signals
IISQSVMGESRNKNSVA | QTSERNY | QQYDRLPLS | 0.32 / 0.40 / 0.36 / 0.23 / 0.42 / 0.28 | 1/18 (2.81)
MFSQLTYMGSRARNAVA | QAETRLN | QQYHHLPLF | 1.32 / 0.81 / 0.20 / 0.45 / 1.03 / 1.18 | 0/18
HISQMWFLESKNKNNVA | EESTRSD | QSYFRLPLS | 0.15 / 0.19 / 0.14 / 0.10 / 0.59 / 0.23 | 1/18 (2.44)
HLSDTVMQGSYYRNSVA | QESTRAD | QQYHHLPLS | 0.73 / 1.04 / 1.70 / 0.37 / 0.63 / 0.52 | 0/18
KLSMLTRFQQNAKNNIA | EMNRREE | QQYHRLPLS | 0.13 / 0.03 / 0.15 / -0.24 / 0.23 / -0.02 | 1/18 (2.46)
HISMMVGTKGYNKNSVA | NSETRED | QQYHRLPLS | ND / 1.55 / 2.18 / 2.89 / 2.26 / 2.60 | 1/18 (2.89)
TLGDVTRMESNKRNSIA | DMSNRAD | QQYHRLPLS | -0.15 / -0.28 / -0.25 / -0.27 / -0.33 / -0.17 | 1/18 (1.42)
MISQLFMYGSRNYNSIA | QAETREK | QQYDRLPLI | 3.13 / 1.47 / 2.23 / 1.43 / 1.92 / 1.23 | 0/18
KLTMMFQHTSKNTNNIA | ERSTREE | QQYHHLPLS | ND / 1.02 / ND / 0.68 / 0.53 / 2.71 | 0/18
SLYDATGMESRNKNPIA | DVSTRPS | QQYHRLPLS | 1.27 / 1.00 / 0.15 / 0.39 / 0.28 / 1.11 | 1/18 (1.74)
KISGMYQKESKNKNSVA | EMVNRED | QQYDRLPLS | 0.12 / -0.17 / -0.07 / -0.10 / -0.22 / 0.17 | 0/18
KLSISHHVESINKSNVA | EMVTRES | QQYDRLPLS | 1.00 / 0.99 / 0.98 / 1.36 / 0.77 / 0.78 | 0/18
MISDLTMYGSRNVNSVA | DLSYRGS | QQYHRLPLS | 1.46 / 0.71 / 0.19 / 0.17 / 0.55 / 0.87 | 0/18
TLVQSVMSGSRAKNSVA | NAETRYD | QHYHRLPLS | 0.57 / 0.39 / 0.54 / 0.34 / 0.32 / 0.58 | 1/18 (2.66)
MISDLTMAGSRNKNSVA | DLSTRGS | QQYHRLPLS | 0.09 / -0.08 / 0.00 / -0.33 / -0.26 / 0.27 | 2/18 (2.35)
KLSQSVNYLSRVMNSVA | DNSTRGS | QQYFRLPLS | 0.26 / -0.10 / -0.28 / -0.30 / -0.15 / -0.16 | 2/18 (2.66)
ALGQSMDMTSRNVNSVA | DLTTREN | QQYHRLPLS | 0.00 / 0.12 / 0.06 / 0.06 / 0.12 / 0.46 | 3/18 (3.37)
NISESMYFQSRNKNNIA | EMSTRER | QHYHRLPLS | 0.48 / 0.24 / 0.44 / 0.15 / 0.34 / 0.45 | 0/18
KISQMVTYESTWHGAIA | QTSERES | QQYHRLPFS | 0.28 / 0.98 / 0.72 / 0.78 / 0.87 / 0.70 | 3/18 (2.94)
KLRISTAYLSENKNSVA | ELSTRGS | QQYFRLPLS | 0.88 / 0.51 / 0.72 / 0.43 / 0.50 / 0.81 | 0/18
ALSQLMDMTSRNKNSVA | DLSTREN | QQYHRLPLS | 0.58 / 0.41 / 0.21 / 0.42 / 0.09 / 0.72 | 0/18
TVSQVHEMLSHNKNSVA | DMNTREN | QQYDRLPLS | 0.33 / 0.17 / -0.20 / 0.11 / 0.17 / 0.34 | 1/18 (2.38)
KLSGFHNVEQINKSNVA | EMVTRES | QQYDRLPLS | 1.32 / 1.57 / 1.35 / 1.37 / 1.46 / 1.81 | 0/18
MISQTFLIGMKAKNSVA | QTNTREE | QQYDRLPLI | 0.51 / 0.26 / 0.36 / 0.16 / 0.56 / 0.55 | 0/18
NFSQMVSTGMTLRNSVA | HASTRFN | QQYHRLPLM | 2.03 / ND / ND / 2.45 / 2.60 / ND | 0/18
MIAESVMYESRNRNSVA | DNSTRED | QCYDRLPLS | ND / ND / ND / ND / 2.32 / 2.55 | 0/18
QLGAMFDMTSKNKNSVA | EQSTREN | QQYHRLPLS | 0.31 / 0.22 / 0.40 / -0.04 / 0.17 / 0.15 | 0/18
KISMLQRYQSNAKNNIA | EMSRREE | QQYHRLPLS | 0.96 / 0.29 / 0.26 / 0.39 / 0.18 / 0.62 | 2/18 (2.44)
KLGQMTAIESRNLNNVA | QMDTRES | QQYHRLPLS | 0.06 / -0.20 / -0.23 / -0.35 / -0.49 / -0.07 | 2/18 (3.14)
MISDLTMYGSRNVNSVA | DLSTRGK | QQYHRLPLS | 0.26 / 0.35 / -0.02 / -0.06 / 0.00 / 0.28 | 1/18 (2.59)
TIGQMFNGESRNRNSVA | QASTRES | QSYDRLPLI | 0.66 / 0.67 / 0.40 / 0.29 / 0.41 / 0.55 | 4/18 (3.09)
KCSQNVLIMGRGKNNVA | EMTTREE | QQYDRLPLS | 0.21 / 0.08 / 0.30 / -0.21 / -0.07 / 0.18 | 1/18 (4.00)
MISDLTMYGSRNKNSVA | DLSVRGS | QQYHRLPLS | 0.10 / 0.03 / 0.26 / -0.09 / -0.10 / 0.12 | 1/18 (2.63)
MIAEMVGYQSRNKNSVA | DNSTRED | QCYDRLPLS | ND / ND / ND / ND / ND / ND | 0/18
KLGSMVLLEHGNVNSIA | QQSTREE | QQYDRLPLS | 1.24 / 2.12 / 2.56 / 1.21 / 2.11 / 1.38 | 0/18
NISQMFFMETKHVNNVA | QTSTREE | QDYHRLPLS | 0.58 / 0.36 / 0.55 / 0.24 / 0.30 / 0.32 | 0/18
KLSMSYRYESENKNSIA | ELTTRMS | QQYHRLPLS | 0.59 / 0.84 / 0.51 / 1.34 / 1.09 / 0.67 | 0/18
HISQSFMTESVWRNNIA | HQSTRET | QQYDRLPFS | 0.21 / 0.35 / 0.34 / 0.27 / 0.17 / 0.61 | 1/18 (3.69)
KLRQSTGYESRNKDSIA | DNSTRGR | QQYHRLPLS | 1.20 / 1.57 / 1.80 / 0.73 / 1.81 / 1.56 | 2/18 (3.06)

Excerpt, the first 5 entries:

CDR-L1	CDR-L2	CDR-L3	replicates, log10 nM	control signals
IISQSVMGESRNKNSVA	QTSERNY	QQYDRLPLS	0.32 / 0.40 / 0.36 / 0.23 / 0.42 / 0.28	1/18 (2.81)
MFSQLTYMGSRARNAVA	QAETRLN	QQYHHLPLF	1.32 / 0.81 / 0.20 / 0.45 / 1.03 / 1.18	0/18
HISQMWFLESKNKNNVA	EESTRSD	QSYFRLPLS	0.15 / 0.19 / 0.14 / 0.10 / 0.59 / 0.23	1/18 (2.44)
HLSDTVMQGSYYRNSVA	QESTRAD	QQYHHLPLS	0.73 / 1.04 / 1.70 / 0.37 / 0.63 / 0.52	0/18
KLSMLTRFQQNAKNNIA	EMNRREE	QQYHRLPLS	0.13 / 0.03 / 0.15 / -0.24 / 0.23 / -0.02	1/18 (2.46)

Empty control strains, which show no peptide, gave a signal in 4% of pairings with all light chain designs; the median was 2.64 and 95% of these signals were weaker than 1.59. No background was subtracted. For each scFv, signals with the empty controls are counted beside the result, with their mean in brackets.
Values of this round are not directly comparable with the first-round values of the same sequences.
In the paper, a design with two or fewer of six values counts as a poor binder.
Of ten entries with the parent sequence, four were seen in most replicates (averages 0.34 to 2.37), three in one and three in none, so single entries are noisy.